Target: Muscarinic acetylcholine receptor M1 (Rattus norvegicus) (UniProt P08482)
Assay: rat M1 muscarinic receptor antagonist potency, dose response, cell-based, calcium fluorescence (AID 859)
Conditions: M1-expressing cells, antagonist mode vs EC80

By UniProt entry, the sequences of proteins in these tests, tags left out.
UniProt P08482, whole entry: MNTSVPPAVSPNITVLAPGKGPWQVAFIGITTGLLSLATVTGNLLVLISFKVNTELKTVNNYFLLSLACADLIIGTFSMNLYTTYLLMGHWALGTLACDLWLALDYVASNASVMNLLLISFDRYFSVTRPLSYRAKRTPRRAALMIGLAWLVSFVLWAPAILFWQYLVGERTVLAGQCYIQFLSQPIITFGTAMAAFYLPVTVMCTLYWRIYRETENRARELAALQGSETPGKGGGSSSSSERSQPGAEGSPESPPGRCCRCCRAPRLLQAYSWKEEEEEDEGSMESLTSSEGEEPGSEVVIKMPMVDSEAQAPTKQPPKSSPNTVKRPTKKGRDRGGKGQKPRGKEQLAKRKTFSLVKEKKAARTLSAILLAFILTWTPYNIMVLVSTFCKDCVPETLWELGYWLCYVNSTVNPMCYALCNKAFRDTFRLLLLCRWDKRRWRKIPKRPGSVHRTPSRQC

Compound	IC50
CCN(CC)CC(O)COC(=O)C(O)(c1ccccc1)C1CCCCC1 (stereo not drawn)	0.125 µM
O=C(OC1CN2CCC1CC2)C12CC3CC(CC(C3)C1)C2 (stereo not drawn)	0.0359 µM
O=C(OC1CN2CCC1CC2)c1cccc(Cl)c1 (stereo not drawn)	2.1 µM

Source: PubChem BioAssay AID859 (Vanderbilt High Throughput Screening Facility, 2007)
